For 26 molecules, inhibition results are on record in PubChem BioAssay AID588354 (The Scripps Research Institute Molecular Screening Center, 2011).

Protein sequences, listed by entry. Tags and fused reporters are not part of them.
UniProt Q15788, whole entry: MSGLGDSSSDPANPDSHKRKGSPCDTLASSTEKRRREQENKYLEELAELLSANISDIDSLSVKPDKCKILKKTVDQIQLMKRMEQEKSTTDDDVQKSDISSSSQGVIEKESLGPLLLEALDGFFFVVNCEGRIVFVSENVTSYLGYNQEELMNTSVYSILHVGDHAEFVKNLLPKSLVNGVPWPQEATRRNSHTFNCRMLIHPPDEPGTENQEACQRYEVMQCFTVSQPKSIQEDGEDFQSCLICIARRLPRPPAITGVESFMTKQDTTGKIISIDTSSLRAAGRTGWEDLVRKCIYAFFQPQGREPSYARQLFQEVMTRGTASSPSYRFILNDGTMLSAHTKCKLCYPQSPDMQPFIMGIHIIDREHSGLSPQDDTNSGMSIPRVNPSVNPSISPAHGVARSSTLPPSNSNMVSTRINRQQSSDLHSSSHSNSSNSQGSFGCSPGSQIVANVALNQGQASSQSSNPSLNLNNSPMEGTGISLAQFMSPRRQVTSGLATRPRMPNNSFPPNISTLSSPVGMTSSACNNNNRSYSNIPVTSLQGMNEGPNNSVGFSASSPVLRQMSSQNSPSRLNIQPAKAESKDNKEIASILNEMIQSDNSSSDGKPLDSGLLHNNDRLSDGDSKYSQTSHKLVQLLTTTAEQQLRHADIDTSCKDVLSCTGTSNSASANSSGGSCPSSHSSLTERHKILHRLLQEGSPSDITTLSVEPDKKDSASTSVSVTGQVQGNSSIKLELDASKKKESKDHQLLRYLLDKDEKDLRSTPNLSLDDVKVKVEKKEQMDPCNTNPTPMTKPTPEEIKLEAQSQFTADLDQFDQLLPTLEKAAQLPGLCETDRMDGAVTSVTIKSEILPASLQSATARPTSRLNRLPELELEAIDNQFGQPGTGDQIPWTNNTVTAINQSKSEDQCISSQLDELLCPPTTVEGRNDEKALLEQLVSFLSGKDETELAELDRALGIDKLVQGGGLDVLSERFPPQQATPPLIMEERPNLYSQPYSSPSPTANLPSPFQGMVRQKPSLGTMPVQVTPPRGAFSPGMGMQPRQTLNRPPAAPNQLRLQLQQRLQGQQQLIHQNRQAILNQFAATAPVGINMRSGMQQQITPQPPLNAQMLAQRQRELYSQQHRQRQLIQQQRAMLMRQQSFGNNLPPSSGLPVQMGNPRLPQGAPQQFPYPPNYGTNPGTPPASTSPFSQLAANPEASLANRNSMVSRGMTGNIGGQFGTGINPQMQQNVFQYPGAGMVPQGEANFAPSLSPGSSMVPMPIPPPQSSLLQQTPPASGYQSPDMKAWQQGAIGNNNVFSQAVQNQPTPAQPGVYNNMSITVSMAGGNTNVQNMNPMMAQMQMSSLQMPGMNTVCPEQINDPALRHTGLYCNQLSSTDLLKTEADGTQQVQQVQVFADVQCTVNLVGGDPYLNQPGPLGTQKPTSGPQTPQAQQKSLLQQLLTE

Only a part is listed here, and it is no random draw. Some tests of the compounds listed are not included; inactive here does not mean inactive elsewhere. Activity calls are given as the source filed them.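 How the source made its calls: active means inhibition above the campaign mean plus 3 SD, with each screening campaign given its own cutoff (cut at about 60% in these data); inactive means the rest.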

In this assay the target is Nuclear receptor coactivator 1 (Homo sapiens) (UniProt Q15788). The assay can be described thus: NCOA1 GAL4-fusion reporter inhibition – cell-based, luminescence, primary screen (AID 588354).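 Further: 0% = DMSO treated cells and 100% = gossypol at 36 µM.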 The conditions noted are these: HEK293 GAL4-SRC1 luciferase reporter, at 3.6 µM, active compounds read high.
By inhibition is commonly meant the change of the read-out against control, counted positive when it falls. For the molecule `O=C(NCC1(N2CCCCC2)CCCCC1)c1cc([N+](=O)[O-])ccc1Cl`, the inhibition was inactive: -18.3%. Consider `CN1[C@@H]2CC[C@H]1CC(OC(=O)C(O)(c1ccccc1)c1ccccc1)C2` (stereo partly specified), for which the inhibition was inactive: -17.1%. Consider `COc1cc(SC)ccc1C(=O)NCC1(N(C)C)CCCCC1`, for which the inhibition was inactive: 4.44%. To `CCN(CC)CC(C)C(C)OC(=O)C(O)(c1ccccc1)c1ccccc1` (stereo unspecified) belongs inactive: 9.15%; to `CC(C)N1C(=O)CC2(CCN(CCOC(=O)C(O)(c3ccccc3)c3ccccc3)CC2)C1=O`, inactive: -3.66%; to `Cc1ccc(C(=O)NCC2(N3CCCCC3)CCCCC2)cc1`, inactive: 0.44%. The same measure for `CN(C)c1ccc(C(=O)NCC2(N(C)C)CCCCC2)cc1`: inactive: -5.84%; for `CN(C)C1CCCC1OC(=O)C(O)(c1ccccc1)c1ccccc1` (stereo unspecified): inactive: -20.3%; for `Cc1ccccc1C(=O)NCC1(N2CCCCC2)CCCCC1`: inactive: 5.77%. To `O=C(NCC1(N2CCCCC2)CCCCC1)c1cc(F)c(F)cc1Cl` belongs inactive: -13.1%. Turning to `C=CCN1CCN(CCOC(=O)C(O)(c2ccccc2)c2ccccc2)CC1`, the inhibition was inactive: -0.47%. To `COc1ccc(C(=O)NCC2(N(C)C)CCCCC2)cc1` belongs inactive: 13.6%. The same measure for `O=C(NCC1(N2CCCCC2)CCCCC1)c1cccc(Br)c1`: inactive: -7.65%.

For the molecule `CCN1CCCC(OC(=O)C2(O)c3ccccc3C=Cc3ccccc32)C1` (stereo unspecified), the inhibition is inactive: -13.7%. To `Cc1cc(C(=O)NCC2(N3CCCCC3)CCCCC2)ccc1[N+](=O)[O-]` belongs inactive: -12.3%. The same measure for `CN(C)C1(CNC(=O)c2ccc(Br)cc2)CCCCC1`: inactive: -10.7%; for `COc1cc(C(=O)NCC2(N(C)C)CCCCC2)c([N+](=O)[O-])cc1OC`: inactive: 3.1%; for `COc1ccc(Cl)cc1C(=O)NCC1(N(C)C)CCCCC1`: inactive: 14.1%. To `COc1cccc(C(=O)NCC2(N3CCCCC3)CCCCC2)c1` belongs inactive: -21.4%; to `O=C(NCC1(N2CCCCC2)CCCCC1)c1cccc(Cl)c1`, inactive: 1.04%; to `O=C(OC1CN2CCC1CC2)C(CO)(c1ccccc1)c1ccccc1` (stereo unspecified), inactive: -15%.

Take `C=C(C)C#CC(O)(C(=O)OC1CCN(C)CC1)c1ccccc1` (stereo unspecified): the inhibition is inactive: -15.7%. For `COc1ccc(Br)c(C(=O)NCC2(N3CCCCC3)CCCCC2)c1`, the inhibition was inactive: 15.3%.

Turning to `O=C(OCCN1CCCC1)C(O)(c1ccccc1)c1ccccc1`, the inhibition was inactive: -11.7%. To `CC(C)Oc1ccc(C(=O)NCC2(N(C)C)CCCCC2)cc1` belongs inactive: 18.2%; to `CN(C)c1cccc(C(=O)NCC2(N(C)C)CCCCC2)c1`, inactive: -8.4%.
